Values of other authors in patent publication US9951014B2, “Mammalian and bacterial nitric oxide synthase inhibitors” (Northwestern University, priority 2014, dated 2018).

Amino acid sequences for entries named in this document (tags omitted). Residues count along the entry.
UniProt P29473, 39-482: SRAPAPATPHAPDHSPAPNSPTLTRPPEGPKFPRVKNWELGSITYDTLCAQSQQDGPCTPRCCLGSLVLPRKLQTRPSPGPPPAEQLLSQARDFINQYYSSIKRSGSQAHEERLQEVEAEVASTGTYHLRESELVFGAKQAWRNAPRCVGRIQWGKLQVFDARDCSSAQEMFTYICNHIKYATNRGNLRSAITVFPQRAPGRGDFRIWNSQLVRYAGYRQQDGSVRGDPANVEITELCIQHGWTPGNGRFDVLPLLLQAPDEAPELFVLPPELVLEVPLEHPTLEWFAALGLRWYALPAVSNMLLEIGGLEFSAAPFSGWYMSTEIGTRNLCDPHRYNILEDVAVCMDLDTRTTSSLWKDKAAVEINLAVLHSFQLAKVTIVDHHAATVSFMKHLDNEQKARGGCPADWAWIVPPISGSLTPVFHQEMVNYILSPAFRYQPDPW

Target: eNOS (Bos taurus (Bovine), UniProt P29473)
Conditions: literature data (footnotes a, c); read-out: KS eNOS; cited from earlier work

For `N=C(NCCC[C@H](N)C(=O)O)N[N+](=O)[O-]` [L-NNA, N^ω-nitro-L-arginine, reference compound], the Kd is given as 0.1 µM.
